Experimental findings from US9827212B2, “Compositions and methods for treating asthma and other lung diseases” (THE TRUSTEES OF THE UNIVERSITY OF PENNSYLVANIA, priority 2010, dated 2017) are described below.

Assay [1] deals with mice sensitized and challenged with Aspergillus fumigatus (AF). Nature of the assay: Invasive lung function (FlexiVent), methacholine challenge, Aspergillus fumigatus sensitized and challenged mice. In kind it is in vivo. The note with it: TSA 0.6 mg/kg i.p., dexamethasone 2.5 mg/kg i.p. The method, then: Mice were sensitized by intraperitoneal (I.P.) injections of 20 μg allergen, a protein extract of the ubiquitous, airborn fungus, Aspergillus fumigatus (AF), (Bayer Pharmaceuticals), in 100 μl PBS solution containing 2 mg of alum (Imject Alum, Pierce) on days 0 and 14 and challenged on days 25, 26, and 27 with 30 μl of Af extract in PBS (25 μg) intranasally (i.n.) (FIG. 1).
(§1) Lung resistance, compliance, elastance, tissue damping, tissue elastance, and airway resistance were recorded using the FlexiVent system (SCIREQ Scientific Respiratory Equipment Inc). The FlexiVent System Overview is shown in FIG. 1B: FlexiVent is a modular, multi-functional device that performs both mechanical ventilation and detailed measurements of respiratory mechanics in subjects.
The mice were anesthetized by an I.P. injection of a Ketamine (100 mg/kg) and Xylazine (20 mg/kg) mixture. After anesthesia, a half centimeter incision was made from the rostal to caudal direction; the flap of skin was retracted and the connective tissue was dissected away, and the trachea was exposed. The trachea was then cannulated between the second and third cartilage rings with a blunt-end stub adapter. The cannula was secured with suture. The mice were next connected to the Flexivent system. […] The respiratory mechanics were then calculated from the data collected while the perturbation was applied. […]

In assay [2] the test system is naïve mice challenged with methacholine. Nature of the assay: Invasive lung function (FlexiVent), methacholine challenge, naïve mice. It is filed as in vivo. On the procedure:
as §1
The mice were anesthetized by an I.P. injection of a Ketamine (100 mg/kg) and Xylazine (20 mg/kg) mixture. After anesthesia, a half centimeter incision was made from the rostal to caudal direction; the flap of skin was retracted and the connective tissue was dissected away, and the trachea was exposed. The trachea was then cannulated between the second and third cartilage rings with a blunt-end stub adapter. The cannula was secured with suture. The mice were next connected to the Flexivent system. All spontaneous respirations were stopped with an intramuscular injection of Pancuronium Bromide (3 mg/kg) and the mice were then mechanically ventilated at respiratory rate of 140 beats/per minute with 0.25 ml of tidal volume. The Flexivent system then briefly interrupted the mechanical ventilation to apply a test signal, or perturbation to measure the respiratory mechanics. The respiratory mechanics were then calculated from the data collected while the perturbation was applied. […]

With `CC(/C=C/C(=O)NO)=C\[C@@H](C)C(=O)c1ccc(N(C)C)cc1` [TSA, Trichostatin A], the “Emax of airway resistance in response to methacholine” value in assay [1] was found to be 6 cmH2O/mL. In assay [2] (TSA 0.6 mg/kg i.p.), the “lung resistance to methacholine challenge relative to baseline” value is given as “below baseline”. Moreover, in assay [2] (TSA 0.6 mg/kg i.p. in DMSO, dexamethasone 2.5 mg/kg i.p.), the “Emax of airway (lung) resistance in response to methacholine” value is on record as 1.0 cmH2O/mL.
